According to patent publication US20210395310A1 (UNIVERSITY OF TOKYO, published 2021):

T1: MET-extracellular domain-Fc fusion protein (product of R&D systems) (UniProt P08581 25-932, limits assumed)
T1 construct: extracellular domain; Bought; held on protein G beads; also called MET-Fc; MET-beads; not shown: Fc part
T1 sequence (looked up): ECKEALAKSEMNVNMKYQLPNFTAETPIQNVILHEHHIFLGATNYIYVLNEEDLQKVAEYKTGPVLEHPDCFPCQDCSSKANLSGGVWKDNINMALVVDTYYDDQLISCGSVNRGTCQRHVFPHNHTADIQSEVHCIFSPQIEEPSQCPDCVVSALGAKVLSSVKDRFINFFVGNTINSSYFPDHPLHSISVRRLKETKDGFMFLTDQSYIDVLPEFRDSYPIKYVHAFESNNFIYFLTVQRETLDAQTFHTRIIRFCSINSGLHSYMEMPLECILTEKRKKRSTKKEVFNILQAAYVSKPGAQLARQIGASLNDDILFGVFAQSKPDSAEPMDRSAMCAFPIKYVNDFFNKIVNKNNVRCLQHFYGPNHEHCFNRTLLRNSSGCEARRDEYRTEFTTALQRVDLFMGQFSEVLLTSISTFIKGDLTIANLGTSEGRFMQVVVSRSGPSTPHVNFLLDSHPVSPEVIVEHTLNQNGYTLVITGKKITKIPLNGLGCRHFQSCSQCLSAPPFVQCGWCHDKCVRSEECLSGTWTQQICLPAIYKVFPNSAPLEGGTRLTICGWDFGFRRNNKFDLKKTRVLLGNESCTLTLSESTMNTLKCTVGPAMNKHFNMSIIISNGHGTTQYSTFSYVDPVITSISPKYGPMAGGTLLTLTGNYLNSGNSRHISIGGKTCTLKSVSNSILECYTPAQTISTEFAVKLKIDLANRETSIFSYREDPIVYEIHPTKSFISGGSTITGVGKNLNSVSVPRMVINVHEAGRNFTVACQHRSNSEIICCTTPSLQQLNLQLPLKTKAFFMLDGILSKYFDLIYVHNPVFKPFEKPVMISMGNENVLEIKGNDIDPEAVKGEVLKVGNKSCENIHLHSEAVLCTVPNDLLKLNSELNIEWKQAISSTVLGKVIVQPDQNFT


Columns and labels:
MET on EHMES-1 cells = MET on EHMES-1 cells (UniProt P08581); assay: cell-based or functional assay
[1] = target: T1, MET-extracellular domain-Fc fusion …; assay: flow cytometry of MET-Fc on protein G beads with rising fluorescein HGF, saturation curve fitting
Procedure: Binding to MET-immobilized beads or control protein G beads was detected by a flow cytometer at varying fluorescein HGF concentrations. […] The arrow in the graph indicates 0.44 nM fluorescein HGF used for peptide assessment. MFI means mean fluorescence intensity.
Labeling of hHGF with fluorescein was performed using a succinimidyl fluorescein labeling kit (product of Dojindo). On 200 μl (50% v/v) of protein G beads (Spherotech) in Tris-buffered physiological saline (pH 7.5) containing 0.1% BSA and […] of Tween-20, 5 μg of MET-extracellular domain-Fc fusion protein (product of R&D systems) was immobilized. […] The fluorescence intensity of the beads was detected using a flow cytometer (product of FACS Canto II, BD Biosciences).

MET activation (EC50), cell-based MET activation assay in EHMES-1 cells (MET on EHMES-1 cells) [nM]	Kd [1] [nM]	Binder
0.07	–	human hepatocyte growth factor (HGF), recombinant full-length, active two-chain form (ligand) QRKRRNTIHEFKKSAKTTLIKIDPALKIKTKKVNTADQCANRCTRNKGLPFTCKAFVFDKARKQCLWFPFNSMSSGVKKEFGHEFDLYENKDYIRNCIIGKGRSYKGTVSITKSGIKCQPWSSMIPHEHSYRGKDLQENYCRNPRGEEGGPWCFTSNPEVRYEVCDIPQCSEVECMTCNGESYRGLMDHTESGKICQRWDHQTPHRHKFLPERYPDKGFDDNYCRNPDGQPRPWCYTLDPHTRWEYCAIKTCADNTMNDTDVPLETTECIQGQGEGYRGTVNTIWNGIPCQRWDSQYPHEHDMTPENFKCKDLRENYCRNPDGSESPWCFTTDPNIRVGYCSQIPNCDMSHGQDCYRGNGKNYMGNLSQTRSGLTCSMWDKNMEDLHRHIFWEPDASKLNENYCRNPDDDAHGPWCYTGNPLIPWDYCPISRCEGDTTPTIVNLDHPVISCAKTKQLRVVNGIPTRTNIGWMVSLRYRNKHICGGSLIKESWVLTARQCFPSRDLKDYEAWLGIHDVHGRGDEKCKQVLNVSQLVYGPEGSDLVLMKLARPAVLDDFVSTIDLPNYGCTIPEKTSCSVYGWGYTGLINYDGLLRVAHLYIMGNEKCSQHHRGKVTLNESEICAGAEKIGSGPCEGDYGGPLVCEQHKMRMVLGVIVPGRGCAIPNRPGIFVRVAYYAKWIHKIILTYKVPQS
–	0.07	fluorescein-HGF (ligand, labelled with a succinimidyl fluorescein labeling kit (sites not given), also called fluoresceinated HGF) QRKRRNTIHEFKKSAKTTLIKIDPALKIKTKKVNTADQCANRCTRNKGLPFTCKAFVFDKARKQCLWFPFNSMSSGVKKEFGHEFDLYENKDYIRNCIIGKGRSYKGTVSITKSGIKCQPWSSMIPHEHSYRGKDLQENYCRNPRGEEGGPWCFTSNPEVRYEVCDIPQCSEVECMTCNGESYRGLMDHTESGKICQRWDHQTPHRHKFLPERYPDKGFDDNYCRNPDGQPRPWCYTLDPHTRWEYCAIKTCADNTMNDTDVPLETTECIQGQGEGYRGTVNTIWNGIPCQRWDSQYPHEHDMTPENFKCKDLRENYCRNPDGSESPWCFTTDPNIRVGYCSQIPNCDMSHGQDCYRGNGKNYMGNLSQTRSGLTCSMWDKNMEDLHRHIFWEPDASKLNENYCRNPDDDAHGPWCYTGNPLIPWDYCPISRCEGDTTPTIVNLDHPVISCAKTKQLRVVNGIPTRTNIGWMVSLRYRNKHICGGSLIKESWVLTARQCFPSRDLKDYEAWLGIHDVHGRGDEKCKQVLNVSQLVYGPEGSDLVLMKLARPAVLDDFVSTIDLPNYGCTIPEKTSCSVYGWGYTGLINYDGLLRVAHLYIMGNEKCSQHHRGKVTLNESEICAGAEKIGSGPCEGDYGGPLVCEQHKMRMVLGVIVPGRGCAIPNRPGIFVRVAYYAKWIHKIILTYKVPQS
